In PubChem BioAssay AID743398 (Broad Institute, 2014):
The list shows a part of the results, in another mix than the full data. Some tests of the compounds listed are not included; inactive here does not mean inactive elsewhere. The source made the active and inactive calls. No stated cut-off is given here; in the data, active means activation above about 30% (passing the limit was not always enough); inconclusive means no clear call, values can overlap the other calls.

Assay: activation of beta-catenin signaling reporter – cell-based, plate reader, single point, primary screen (AID 743398);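 further: 0% = neutral control wells and 100% = positive control wells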
Details: Wnt/beta-catenin reporter cell assay, activator, at 9.35 µM, active compounds read high

| Compound | activation |
| --- | --- |
| C=CCN1CCN(CCOC(=O)C(O)(c2ccccc2)c2ccccc2)CC1 | inactive: -0.404% |
| O=C(NCC1(N2CCCCC2)CCCCC1)c1cc(F)c(F)cc1Cl | inactive: -0.34% |
| Cc1cc(C(=O)NCC2(N3CCCCC3)CCCCC2)ccc1[N+](=O)[O-] | inactive: -1.8% |
| CCN1CCCC(OC(=O)C2(O)c3ccccc3C=Cc3ccccc32)C1 (centres undefined) | inactive: 0.544% |
| O=C(NCC1(N2CCCCC2)CCCCC1)c1cccc(Br)c1 | inactive: 5.05% |
| COc1ccc(C(=O)NCC2(N(C)C)CCCCC2)cc1 | inactive: -1.86% |
| Cc1ccccc1C(=O)NCC1(N2CCCCC2)CCCCC1 | inactive: -0.569% |
| CN(C)C1CCCC1OC(=O)C(O)(c1ccccc1)c1ccccc1 (centres undefined) | inactive: -0.469% |
| CN(C)c1ccc(C(=O)NCC2(N(C)C)CCCCC2)cc1 | inactive: 4.6% |
| CC(C)N1C(=O)CC2(CCN(CCOC(=O)C(O)(c3ccccc3)c3ccccc3)CC2)C1=O | inactive: -2.58% |
| CCN(CC)CC(C)C(C)OC(=O)C(O)(c1ccccc1)c1ccccc1 (centres undefined) | inactive: 2.57% |
| COc1cc(SC)ccc1C(=O)NCC1(N(C)C)CCCCC1 | inactive: 0.318% |
| Cc1ccc(C(=O)NCC2(N3CCCCC3)CCCCC2)cc1 | inactive: -2.13% |
| O=C(NCC1(N2CCCCC2)CCCCC1)c1cc([N+](=O)[O-])ccc1Cl | inactive: -1.97% |
| CN1[C@@H]2CC[C@H]1CC(OC(=O)C(O)(c1ccccc1)c1ccccc1)C2 (some centres undefined) | inactive: -0.648% |
| COc1ccc(Br)c(C(=O)NCC2(N3CCCCC3)CCCCC2)c1 | inactive: 25.7% |
| C=C(C)C#CC(O)(C(=O)OC1CCN(C)CC1)c1ccccc1 (centres undefined) | inactive: -6.04% |
| CC(C)Oc1ccc(C(=O)NCC2(N(C)C)CCCCC2)cc1 | inactive: 1.41% |
| O=C(OCCN1CCCC1)C(O)(c1ccccc1)c1ccccc1 | inactive: 4.9% |
| COc1cccc(C(=O)NCC2(N3CCCCC3)CCCCC2)c1 | inactive: 1.05% |
| COc1ccc(Cl)cc1C(=O)NCC1(N(C)C)CCCCC1 | inactive: 0.847% |
| O=C(NCC1(N2CCCCC2)CCCCC1)c1cccc(Cl)c1 | inactive: 0.609% |
| CN(C)C1(CNC(=O)c2ccc(Br)cc2)CCCCC1 | inactive: 0.349% |
| COc1cc(C(=O)NCC2(N(C)C)CCCCC2)c([N+](=O)[O-])cc1OC | inactive: 1.08% |
